Here are results for 1 compound from patent EP0632806B1 (priority 1992, dated 1993).

As usually defined, the LD50 is the dose expected to kill half of the subjects tested.

Data set [1] relates to rats. The experiment in a line: Estimated LD50 in rats.
The test system of data set [2] is mice. Description: Estimated LD50 in mice.

For `CN(C(=O)Cc1cccc2sccc12)[C@@H]1CCCC[C@H]1N1CCCC1` (racemic), the LD50 is 32 µmol/kg in data set [1] and 27 µmol/kg in data set [2].
